PubChem BioAssay AID1861 (The Scripps Research Institute Molecular Screening Center, 2009)
The entries are a selection whose mix differs from that of the whole data set. Calls of active or inactive are those of the source. No stated cut-off is given here; in the data, active means inhibition above about 16% (passing the limit was not always enough); inactive means the rest.

Chains of the proteins cited; added tags and fusions are not shown.
UniProt P48145, whole entry: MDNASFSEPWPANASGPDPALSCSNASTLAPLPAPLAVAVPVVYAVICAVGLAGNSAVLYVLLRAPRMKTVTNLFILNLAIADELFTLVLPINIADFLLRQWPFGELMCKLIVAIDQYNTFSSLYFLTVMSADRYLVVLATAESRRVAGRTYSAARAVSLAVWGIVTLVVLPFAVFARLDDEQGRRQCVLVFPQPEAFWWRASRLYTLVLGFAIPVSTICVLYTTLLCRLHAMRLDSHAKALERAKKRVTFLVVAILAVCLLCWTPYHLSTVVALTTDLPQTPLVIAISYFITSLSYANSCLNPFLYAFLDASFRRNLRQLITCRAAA

target: Neuropeptides B/W receptor type 1 (Homo sapiens) (UniProt P48145); test: GPR7 receptor antagonists, primary screen, cell-based, fluorescence, single concentration (AID 1861); conditions: GPR7-expressing cells, fluorescence antagonist assay; at 4.4 µM; hits give high values;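 further: cells stimulated with the agonist NPW; 0% = agonist with vehicle and 100% = vehicle without agonist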

| SMILES | inhibition |
| --- | --- |
| COc1ccc(NC2CCN(C(=O)OC(C)(C)C)CC2)cc1 | inactive: 3.73% |
| CN1CCN(CCOC(=O)C(O)(c2ccccc2)c2ccccc2)CC1 | inactive: -5.49% |
| O=C(NCC1(N2CCOCC2)CCCCC1)c1cc(=O)[nH]c2ccccc12 | inactive: 6.03% |
| COc1cc(C(=O)NCC2(N3CCCCC3)CCCCC2)ccc1OC(F)F | inactive: -4.88% |
| O=C(NCC1(N2CCCCC2)CCCCC1)c1cccc(C(F)(F)F)c1 | inactive: 0.67% |
| O=C(NCC1(N2CCCCC2)CCCCC1)c1cccc([N+](=O)[O-])c1 | inactive: -1.76% |
| N#CC1(Nc2ccccc2)CCN(CCc2ccccc2)CC1 | inactive: -2.48% |
| CCN1CCC(Nc2ccc(Cl)cc2)CC1 | inactive: -9.83% |
| O=C(NCC1(N2CCCCC2)CCCCC1)c1ccc(OC(F)F)cc1 | inactive: -1.29% |
| CCCOc1ccc(C(=O)NCC2(N(C)C)CCCCC2)cc1OC | inactive: 2.39% |
| CN1CCC(Nc2cccc(F)c2)CC1 | inactive: 2.2% |
| COc1cc(OC)c(C(=O)NCC2(N(C)C)CCCCC2)cc1OC | inactive: -2.02% |
| CN(C)c1cccc(C(=O)NCC2(N3CCCCC3)CCCCC2)c1 | inactive: 1.59% |
| COc1ccc(CN(CCCl)CCCl)cc1Cl | inactive: -13.7% |
| CC(C)c1ccc(NC2CCN(C(=O)OC(C)(C)C)CC2)cc1 | inactive: -3.61% |
| CCOC(=O)N1CCC(Nc2ccc(OC)cc2)CC1 | inactive: -8.47% |
| N#CC1(Nc2ccccc2)CCN(Cc2ccccc2)CC1 | inactive: 0.78% |
| O=C(OC1CN2CCC1CC2)C1c2ccccc2Oc2ccccc21 (centres undefined) | inactive: -5.28% |
| O=C(NCC1(N2CCOCC2)CCCCC1)c1cc2ccccc2o1 | inactive: -5.51% |
| Cc1cc(C)cc(N(C(=O)c2ccccc2)C2CCN(C(=O)OC(C)(C)C)CC2)c1 | inactive: -15.3% |
| CSc1ccccc1C(=O)NCC1(N2CCCCC2)CCCCC1 | inactive: 7.01% |
| O=C(NCC1(N2CCCCC2)CCCCC1)c1ccc(=O)[nH]c1 | inactive: -0.45% |
| CC(C)(C)OC(=O)N1CCC(N(C(=O)c2ccccc2)c2ccc(F)cc2)CC1 | inactive: 6.98% |
| COc1ccc(C(=O)NCC2(N3CCCCC3)CCCCC2)c(OC)c1OC | inactive: -15.5% |
| COc1ccc(C(=O)NCC2(N3CCCCC3)CCCCC2)cc1 | inactive: -13.3% |
| Cc1ccc(OCC(C)C)c(CN(CCCl)CCCl)c1 | inactive: 2.54% |
| CCOC(=O)N1CCC(Nc2cccc(C)c2)CC1 | inactive: -12.8% |

| SMILES | inhibition |
| --- | --- |
| COc1cc(C(=O)NCC2(N(C)C)CCCCC2)ccc1OC(F)F | inactive: -6.88% |
| CCOC(=O)N1CCC(Nc2ccc(F)cc2)CC1 | inactive: -1.74% |
| COc1ccc(NC2CCN(CCc3ccccc3)CC2)c(OC)c1 | inactive: -9.28% |
| O=C(NCC1(N2CCCCC2)CCCCC1)c1ccc(F)cc1 | inactive: -11.1% |
| CCOc1ccc(C)cc1CN(CCCl)CCCl | inactive: 3.79% |
| CN(C)c1ccc(C(=O)NCC2(N3CCCCC3)CCCCC2)cc1 | inactive: -0.59% |
| CCN1CCC(Nc2cccc(F)c2)CC1 | inactive: -2.12% |
| COc1cc(OC)cc(C(=O)NCC2(N3CCCCC3)CCCCC2)c1 | inactive: -2.63% |
| CCCOc1ccc(C)cc1CN(CCCl)CCCl | inactive: -6.95% |
| CN1CCC(Nc2ccc(Cl)cc2)CC1 | inactive: -3.42% |
| CCC(CO)(C(=O)OC1CN2CCC1CC2)c1ccccc1 (centres undefined) | inactive: -4.11% |
| COc1cccc(C(=O)N(c2cc(C)cc(C)c2)C2CCN(C(=O)OC(C)(C)C)CC2)c1 | inactive: 2.96% |
| COc1cc(OC)cc(C(=O)NCC2(N3CCOCC3)CCCCC2)c1 | inactive: 5.71% |
| CCCOc1ccc(C(=O)NCC2(N(C)C)CCCCC2)cc1 | inactive: -16.3% |
| O=C(O)C1(Nc2ccccc2)CCN(Cc2ccccc2)CC1 | inactive: 5.01% |
| CC(C)(C)OC(=O)N1CCC(Nc2ccccc2)CC1 | inactive: -14.6% |
| CN1CCC(Nc2ccc(F)c(Cl)c2)CC1 | inactive: 0.73% |
| CCOc1ncccc1C(=O)NCC1(N2CCOCC2)CCCCC1 | inactive: -12.1% |
| O=C(OC1CN2CCC1CC2)C1c2ccccc2C=Cc2ccccc21 (centres undefined) | inactive: 3.62% |
| N/C(=N\O)c1c(N)no[n+]1[O-] | inactive: -2.96% |
| CCOC(=O)N1CCC(Nc2ccc(C)cc2)CC1 | inactive: 1.57% |
| COc1ccc(C(=O)NCC2(N3CCOCC3)CCCCC2)cc1OC | inactive: 1.63% |
| CCCN1CCC(Nc2cc(OC)cc(OC)c2)CC1 | inactive: -0.29% |
| c1ccc(CN2CCC(Nc3ccccc3)CC2)cc1 | inactive: -1.85% |
| CN(C)C1(CNC(=O)c2cccc(C#N)c2)CCCCC1 | inactive: -4.23% |
| CC(C)(C)OC(=O)N1CCC(N(C(=O)c2ccccc2)c2ccc(Cl)cc2)CC1 | inactive: -11.6% |
| N#Cc1ccc(C(=O)NCC2(N3CCCCC3)CCCCC2)cc1 | inactive: 0.32% |
